Test results as given in ChEMBL document CHEMBL3400138, “Synthesis of 3-azabicyclo[3.2.2]nonanes and their antiprotozoal activities” (Bioorg Med Chem Lett, 2015).

Sequences of proteins named here, by UniProt entry; tags and fusion partners are left off. A change or cut given only in a name is not applied to a line headed by its entry.
UniProt Q12809: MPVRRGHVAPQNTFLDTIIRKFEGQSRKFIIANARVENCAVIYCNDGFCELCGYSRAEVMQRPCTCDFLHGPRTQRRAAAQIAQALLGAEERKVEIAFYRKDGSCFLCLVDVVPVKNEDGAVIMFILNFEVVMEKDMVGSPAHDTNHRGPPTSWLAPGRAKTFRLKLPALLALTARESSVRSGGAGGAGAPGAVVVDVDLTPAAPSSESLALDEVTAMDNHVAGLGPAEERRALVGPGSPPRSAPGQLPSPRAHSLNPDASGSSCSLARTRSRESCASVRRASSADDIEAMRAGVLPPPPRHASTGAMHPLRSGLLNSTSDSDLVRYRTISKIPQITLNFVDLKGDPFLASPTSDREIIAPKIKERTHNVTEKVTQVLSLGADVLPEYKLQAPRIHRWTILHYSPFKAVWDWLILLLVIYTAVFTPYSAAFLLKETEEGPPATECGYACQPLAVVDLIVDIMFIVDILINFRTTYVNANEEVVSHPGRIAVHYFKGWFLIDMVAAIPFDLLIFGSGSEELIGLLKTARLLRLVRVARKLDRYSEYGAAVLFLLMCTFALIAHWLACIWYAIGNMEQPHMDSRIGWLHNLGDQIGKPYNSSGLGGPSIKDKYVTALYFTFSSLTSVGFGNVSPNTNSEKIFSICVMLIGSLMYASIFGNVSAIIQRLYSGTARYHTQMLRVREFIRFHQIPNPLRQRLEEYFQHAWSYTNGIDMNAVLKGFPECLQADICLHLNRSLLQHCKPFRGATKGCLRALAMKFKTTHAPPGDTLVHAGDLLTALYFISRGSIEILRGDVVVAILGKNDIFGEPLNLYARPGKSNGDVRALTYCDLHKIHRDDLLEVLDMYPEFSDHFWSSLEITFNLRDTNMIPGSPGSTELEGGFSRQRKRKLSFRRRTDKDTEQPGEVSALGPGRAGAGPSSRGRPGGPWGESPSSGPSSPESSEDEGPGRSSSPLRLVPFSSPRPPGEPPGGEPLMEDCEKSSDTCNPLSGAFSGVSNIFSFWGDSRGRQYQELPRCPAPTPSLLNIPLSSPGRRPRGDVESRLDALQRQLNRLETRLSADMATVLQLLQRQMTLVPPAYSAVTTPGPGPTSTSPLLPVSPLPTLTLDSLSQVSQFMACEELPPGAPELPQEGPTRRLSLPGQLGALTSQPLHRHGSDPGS

Biological target: Voltage-gated inwardly rectifying potassium channel KCNH2 (Homo sapiens, UniProt Q12809)
Assay: Inhibition of human ERG expressed in HEK293 cells assessed as reduction in tail current at membrane potential of +20 mV
Assay type: cell-based

O[C@@H](c1cc(C(F)(F)F)nc2c(C(F)(F)F)cccc12)[C@H]1CCCCN1 (relative stereo) [(S,R)-MEFLOQUINE]
IC50: 2.6 µM
